Source: patent publication US20180036332A1, “USE OF NADPH IN PREPARING MEDICINES FOR TREATMENT OF HEART DISEASES” (Chongqing Institute of Bench-to Bed Bioengineering …, priority 2015, published 2018)

Legend:
Assay type in all cases: in vivo
[1] = Blood brain barrier permeability test (Evan's blue) in transient middle cerebral arterial occlusion mouse model; settings: 7.5 mg/kg tail vein twice a day for 1 week before ischemia; ICR mice, 2 h occlusion then reperfusion; vs vehicle group, p<0.01
[2] = Blood brain barrier injury test (Dextran-Texas leakage) in permanent middle cerebral arterial occlusion ischemia mouse model; settings: 2.5 mg/kg in the cerebral ventricle; 24 hours after permanent brain ischemia; C57BL/6 mice
[3] = test system: CD11c-eYFP cells in the striatum brain area; experiment: Blood brain barrier related immune cell response (CD11c-eYFP dendritic cells) in permanent middle cerebral arterial embolism ischemia model; settings: 2.5 mg/kg in the cerebral ventricle, 2 hours before ischemia; measured 24 hours after permanent brain ischemia; Tg(Itgax-Venus)1Mnz mice

Substance: Nicotinamide adenine dinucleotide phosphate [NADPH]
- permeability of blood brain barrier (EB content in brain tissue) [1]: significantly reduces the permeability of blood brain barrier
- ischemia induced Dextran-Texas leakage in the cerebral cortex and striatum area [2]: effectively reduced the ischemia induced Dextran-Texas leakage
- responsiveness of CD11c-eYFP cells in the striatum brain area [3]: effectively reduces the responsiveness of CD11c-eYFP cells
